Reference: ChEMBL document CHEMBL5518211, “Design, Synthesis, and Antitumor Activity Evaluation of Novel VISTA Small Molecule Inhibitors” (J Med Chem, 2024)

By UniProt entry, the sequences of proteins in these tests, tags left out.
UniProt Q9NZQ7, whole entry: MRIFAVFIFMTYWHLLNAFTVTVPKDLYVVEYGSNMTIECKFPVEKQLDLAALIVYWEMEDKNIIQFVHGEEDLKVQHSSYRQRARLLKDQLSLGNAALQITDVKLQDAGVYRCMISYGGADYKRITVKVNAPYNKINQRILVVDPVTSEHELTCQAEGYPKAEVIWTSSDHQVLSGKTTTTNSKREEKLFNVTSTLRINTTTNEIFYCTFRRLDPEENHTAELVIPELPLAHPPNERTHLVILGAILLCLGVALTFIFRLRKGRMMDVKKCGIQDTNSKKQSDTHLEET

Target: Programmed cell death 1 ligand 1 (Homo sapiens) (UniProt Q9NZQ7)
Experiment: Binding affinity to human PD-L1 by MST assay

COc1cc(CNCCO)nc(Nc2cccc(O)c2)n1
Activity: inactive

Active and inactive are the calls of the source. The calls are words filed in the database; no cut-off is given here.
